Assay: xn = mol fraction of the nth substance listed
Conditions: 101 kPa, Liquid

CCCCOCCCC [dibutyl ether] + CN(C)C=O
mass density [kg/m3]
Conditions	298.15 K	313.15 K	328.15 K	343.15 K	358.15 K
x2 = 0.0483	768.21	755.06	741.79	728.37	714.7
x2 = 0.0806	771.19	758.08	744.82	731.39	717.74
x2 = 0.1337	776.54	763.46	750.07	736.74	723.01
x2 = 0.1611	779.45	766.34	752.91	739.58	725.78
x2 = 0.216	785.37	772.37	759.03	745.62	731.77
x2 = 0.2552	789.82	776.88	763.5	750.06	736.2
x2 = 0.3265	798.49	785.61	772.16	758.64	744.72
x2 = 0.3518	801.74	788.88	775.39	761.84	747.98
x2 = 0.4154	810.36	797.56	783.96	770.41	756.42
x2 = 0.4691	818.19	805.41	791.73	778.14	764.11
x2 = 0.4967	822.42	809.67	795.93	782.32	768.26
x2 = 0.5034	823.48	810.72	796.98	783.36	769.29
x2 = 0.5397	829.38	816.63	802.8	789.15	775.04
x2 = 0.5629	833.28	820.54	806.67	793	778.87
x2 = 0.6021	840.17	827.48	813.49	799.78	785.63
x2 = 0.6412	847.47	834.8	820.71	806.96	792.77
x2 = 0.7062	860.67	847.95	833.65	819.8	805.47
x2 = 0.7531	871.09	858.35	843.87	829.89	815.71
x2 = 0.7913	880.22	867.43	852.7	838.8	824.68
x2 = 0.8441	893.79	881.03	866.01	852.04	838.01
x2 = 0.9109	913.14	900.24	884.81	870.69	856.54
x2 = 0.9585	928.55	915.55	900.12	885.8	871.37
x2 = 0.9861	938.53	925.65	909.84	895.29	880.68

From the NIST ThermoML archive (doi:10.1016/j.jct.2005.01.002)
